Legend:
GLP-1 receptor = molecular target: T1, GLP-1 receptor (Homo sapiens, UniProt P43220); assay: Biolayer interferometry (BLI) of GLP-1 binding to its receptor; conditions: compared with negative control without receptor on sensor tip; undiluted CFPS GLP-1 or 100 μg/ml commercial GLP-1
T1 construct: purchased MyBioSource.com MBS949592

Sequences of proteins named here, by UniProt entry; tags and fusion partners are left off. Residues count along the entry.
UniProt P43220, 24-139 limits assumed: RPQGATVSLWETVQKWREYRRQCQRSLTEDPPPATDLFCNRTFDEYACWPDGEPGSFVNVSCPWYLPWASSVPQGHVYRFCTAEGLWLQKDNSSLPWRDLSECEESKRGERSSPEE

[1] = molecular target: T2, extracellular domain of the GLP-1 receptor (Homo sapiens, UniProt P43220); assay: AlphaLISA cross-titration of GLP-1 and GLP-1 receptor; assay type: binding
T2 construct: Fc-tagged extracellular domain of the GLP-1 receptor; purchased Sino Biological 13944-H02H

- GLP-1 binding to its receptor (AlphaLISA) ([1]; sFLAG tagged GLP-1, anti-FLAG donor beads, Fc-tagged receptor extracellular domain, Protein A acceptor beads): detected GLP-1 binding to its receptor
- AlphaLISA binding signal above the background noise ([1]; sFLAG tagged GLP-1, low signal relative to GH): more than 3 standard deviations
Substance: Glucagon like peptide-1 [GLP-1]
- GLP-1 binding to its receptor (BLI) (GLP-1 receptor): no binding detected at a level greater than the negative control
